Assay results as given in BindingDB's records for PubMed 1706716 (Duke University, 1991).

Target: T1, Alpha-1A adrenergic receptor (Bos taurus, UniProt P18130)
T1 sequence (P18130 whole entry): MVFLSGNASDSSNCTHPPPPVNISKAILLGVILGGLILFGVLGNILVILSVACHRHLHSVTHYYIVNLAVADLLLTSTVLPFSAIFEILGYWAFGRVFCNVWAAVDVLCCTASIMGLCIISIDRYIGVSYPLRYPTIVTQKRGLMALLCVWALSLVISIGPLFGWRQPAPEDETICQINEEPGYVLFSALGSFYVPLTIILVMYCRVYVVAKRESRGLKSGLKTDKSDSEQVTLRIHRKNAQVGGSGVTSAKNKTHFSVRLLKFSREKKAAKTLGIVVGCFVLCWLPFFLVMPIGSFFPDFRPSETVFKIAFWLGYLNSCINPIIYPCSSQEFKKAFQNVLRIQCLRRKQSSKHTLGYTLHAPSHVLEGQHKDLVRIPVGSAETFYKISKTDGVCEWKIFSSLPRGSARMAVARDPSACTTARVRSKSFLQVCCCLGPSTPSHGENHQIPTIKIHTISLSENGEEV

For `CNCC(O)c1ccc(O)c(O)c1` (stereo unspecified) [EPINEPHRINE], the Ki was 6.25 µM.
